{"source": "paper PMC6273692", "about": "“Binding Mode and Selectivity of Steroids towards Glucose-6-phosphate Dehydrogenase from the Pathogen Trypanosoma cruzi” (Molecules, 2016)", "origin": "cited, not measured here", "details_in_all_cases": "cited from earlier work", "key": {"T. brucei": {"tested_on": "T. brucei"}, "T. cruzi": {"tested_on": "T. cruzi"}, "L. mexicana": {"tested_on": "L. mexicana"}}}
{"smiles": "C[C@]12CC[C@H](O)CC1=CC[C@@H]1[C@@H]2CC[C@]2(C)C(=O)CC[C@@H]12", "note": "[DHEA, dehydroepiandrosterone]", "values": [{"measurement": "cytotoxicity towards T. brucei", "setting": "T. brucei", "value": "cytotoxic"}, {"measurement": "cytotoxicity towards T. cruzi", "setting": "T. cruzi", "value": "cytotoxic"}, {"measurement": "cytotoxicity against L. mexicana", "setting": "L. mexicana", "value": "not against L. mexicana"}]}
